Experimental data taken from patent US10759863B2, “Modulation of γδ T cells” (Sanford Burnham Prebys Medical Discovery Institute, priority 2013, dated 2020).

System: BTLA expression in γδT cells and ILCs
Assay: Cytokine-induced BTLA expression in cultured iLN γδT cells and PP ILCs
Type: cell-based
Conditions: iLN lymphocytes of Rorc(t)gfp/+ mice enriched for CD27− γδT cells; FIG. 17A
Method: Surface staining was performed on ice for 20-30 min. Intracellular staining was performed using the BD Cytofix/Cytoperm™ Kit according the manufacturer's instructions (BD Biosciences). Stained cells were acquired using a BD LSRFortessa™ equipped with 4 lasers (blue at 488 nm, yellow-green at 561 nm, red at 640 nm, violet at 405 nm). Antibodies in SI.
For IL-7 induced expansion iLN lymphocytes were cultured in RF10 media (RPMI+10% FBS, p/s, L-Glutamine) at 10^7/ml in 12-well plates for four days. For IL-7 induced BTLA expression iLN or PP lymphocytes were enriched for ILCs and CD27^− γδT cells and cultured in RF10 media in 24-well plates containing feeder adherent cells for two days. Following enrichment, cells from 3 animals were cultured in 1 ml in a single well. IL-7 (R&D Systems, Minneapolis, Minn.) was added at 10 ng/ml. For IL-17 and TNF production whole lymph node cells were cultured with or without 10 ng/ml IL-7 for 18 hours and then re-stimulated with PMA (50 ng/ml), ionomycin (750 ng/ml) and Golgi Stop™ (BD Biosciences) for 3.5 hours. TH17 differentiation was performed by isolating CD4^+ T cells from spleens and culturing in anti-CD3 (5 μg/ml) coated 24-well plates at 1.35×10^6/ml with anti-CD28 (2 μg/ml), IL-6 (20 ng/ml) and TGFβ1 (2 ng/ml). At day 5, cells were washed and re-stimulated with PMA+ionomycin and Golgi Stop™ (BD Biosciences) for 3.5 hours. […]

IL-2: activating cytokine
BTLA induction in RORγt+ γδT cells after culture with activating cytokines: induced
